Laboratory results taken from publication PMC6009921, “Carbon- versus sulphur-based zinc binding groups for carbonic anhydrase inhibitors?” (Journal of Enzyme Inhibition and Medicinal Chemistry, 2018).

By UniProt entry, the sequences of proteins in these tests, tags left out. Residues count along the entry.
UniProt O43570, 30-289 limits assumed: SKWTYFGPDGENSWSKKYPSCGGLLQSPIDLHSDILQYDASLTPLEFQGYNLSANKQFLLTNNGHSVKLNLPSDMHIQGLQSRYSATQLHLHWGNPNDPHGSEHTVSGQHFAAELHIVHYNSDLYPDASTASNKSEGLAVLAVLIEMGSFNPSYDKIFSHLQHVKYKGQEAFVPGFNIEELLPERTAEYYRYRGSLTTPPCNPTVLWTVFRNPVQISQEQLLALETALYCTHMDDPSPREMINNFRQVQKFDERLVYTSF

Molecular target: T1, hCA XII (Homo sapiens, UniProt O43570)
T1 construct: gene CA12; recombinant, obtained in-house
Assay: stopped-flow CO2 hydration
Format: biochemical
Conditions: CO2 1.7-17 mM, 20 mM Hepes pH 7.5, 20 mM Na2SO4, 15 min preincubation, room temperature; read-out: KI (μM)^a^,^b / hCA XII^c

O=C(NO)c1ccccc1 [compound 9, hydroxamic acid 9] was tested, and the Ki was 9.51 µM.
